We go through 56 molecules from PubChem BioAssay AID624354 (Sanford-Burnham Center for Chemical Genomics, 2012).

This is a selection; strong and weak results do not stand in their true shares. Activity calls are given as the source filed them.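 Rule for the calls: active = compounds causing at least 50% loss of cell viability in the single-dose screen, relative to plate controls; inactive = the rest.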

This assay is described as follows: viability loss with TRAIL in NB7+C8 cells, primary screen, TRAIL sensitizer project, cell-based, ATPlite luminescence (AID 624354). The settings on record: at 10 µM, hits give high values. In general terms: Cellular ATP, detected with luciferase, serves as a proxy for viable cell number.
On to `COc1ccc(C2=NCC(CBr)S2)cc1` (stereo unspecified), for which the inhibition (viability loss, TRAIL sensitization) is inactive: 7.37%. The figure for `CC(=O)N1C2C3N(C(C)=O)C1C1N(C(C)=O)C(C(N1C(C)=O)N3C(C)=O)N2C(C)=O` is inactive: -4.17%; for `O=[N+]([O-])c1cccc2n[nH]nc12` it is inactive: 2.8%; for `Cc1ccc(NP(=O)(Oc2ccccc2)Oc2ccccc2)nc1` it is inactive: -3.15%.

Turning to `O=[N+]([O-])c1cc([N+](=O)[O-])c(CCNc2ccccc2)c([N+](=O)[O-])c1`, the inhibition (viability loss, TRAIL sensitization) is inactive: 1.62%. On to `CCc1nc2c(n1)c1c(non1O)c1c2no[n+]1[O-]`, for which the inhibition (viability loss, TRAIL sensitization) was inactive: 39.4%. The figure for `Nc1ccc([As](=O)(O)c2ccc(N)cc2)cc1` is inactive: 0.17%. The figure for `C[N+]1=C2C=CC=CC=C2SC12C([N+](=O)[O-])=CC([N+](=O)[O-])=C[C-]2[N+](=O)[O-]` (stereo unspecified) is inactive: 12.6%; for `CCN(/C(=N/P(=O)(N1CCOCC1)N1CCOCC1)N1CCOCC1)c1ccc(OC)cc1` it is inactive: -6.42%. The figure for `CC(C)=N/N=C(\N)N[N+](=O)[O-]` is inactive: -4.72%; for `CC(C)c1nc(Nc2ccccc2)n(P(=O)(N(C)C)N(C)C)n1` it is inactive: -6.46%.

With `CN(C)C(=O)OCCc1n(C)cc[n+]1C`, the inhibition (viability loss, TRAIL sensitization) was inactive: 9.87%. The value for `c1cc(-c2nn[nH]n2)ccc1-c1nn[nH]n1` was inactive: -14.6%; that for `CC1CCN(C(=O)Oc2c(Cl)cc(Cl)c3cccnc23)CC1` was inactive: -3.98%; that for `O=P1(N(CCCl)CCCl)OCCCS1` (stereo unspecified) was inactive: 11.2%. In the case of `O=C(Nc1cc([As](=O)(O)O)ccc1O)c1ccccc1`, the inhibition (viability loss, TRAIL sensitization) was inactive: 7.34%. The value for `CC(C)(C)C(=O)NC(Sc1ccncn1)C(Cl)(Cl)Cl` (stereo unspecified) was inactive: 9.21%.

For the molecule `O=[N+]([O-])c1ncn(CCn2ncnc2[N+](=O)[O-])n1`, the inhibition (viability loss, TRAIL sensitization) was inactive: -22.2%. For `O=[N+]([O-])c1cccc(NC2=NCC(CBr)S2)c1` (stereo unspecified), the inhibition (viability loss, TRAIL sensitization) is inactive: 4.2%. As for `COC(=O)C1(C)COP(=O)(Nc2ccccc2)OC1` (stereo unspecified), the inhibition (viability loss, TRAIL sensitization) was inactive: -12.7%. The value for `O=C(O)CNc1ccc([As](=O)(O)O)cc1` was inactive: -6.62%; that for `CC1CCNP(=O)(N(CCCl)CCCl)O1` (stereo unspecified) was inactive: -17.3%. The value for `O=C(O)C(O)c1ccc(N(CCCl)CCCl)cc1` (stereo unspecified) was inactive: 4.18%; that for `CCOC(=O)Nc1ccc([As](=O)(O)O)c(O)c1` was inactive: -12.2%; that for `CCCCOc1ccc(C(=O)NCC2(N3CCCCC3)CCCCC2)cc1OC` was inactive: -4.98%. The figure for `Cc1cc(SC(NC(=O)c2ccccc2)C(Cl)(Cl)Cl)nc(C(C)C)n1` (stereo unspecified) is inactive: 2.04%. Regarding `COP(=O)(OC)N1CC1c1ccccc1` (stereo unspecified), the inhibition (viability loss, TRAIL sensitization) is inactive: 15.6%. Take `CCOC(=O)Nc1cccc([As](=O)(O)O)c1`: the inhibition (viability loss, TRAIL sensitization) was inactive: -4.48%.

Take `O=[N+]([O-])c1ccc(Nc2ccc(Oc3ccc([N+](=O)[O-])cc3[N+](=O)[O-])cc2)c([N+](=O)[O-])c1`: the inhibition (viability loss, TRAIL sensitization) was inactive: 14.7%. The figure for `Cc1cc(SC(NC=O)C(Cl)(Cl)Cl)ncn1` (stereo unspecified) is inactive: 1.26%; for `O=P(Nc1ccccn1)(c1cccc2ccccc12)c1cccc2ccccc12` it is inactive: -5.36%; for `COP1(=S)c2c(C)nn(CCC#N)c2N=C(c2ccc(F)cc2)N1C` (stereo unspecified) it is inactive: -4.64%. In the case of `COC(=O)C1(C)COP(=O)(N2CCCC2)OC1` (stereo unspecified), the inhibition (viability loss, TRAIL sensitization) was inactive: -1.24%. The value for `O=C(COc1ccccc1)OC1CN2CCC1CC2` (stereo unspecified) was inactive: 6.96%; that for `O=C(Nc1ccncc1[N+](=O)[O-])c1ccc([N+](=O)[O-])cc1[N+](=O)[O-]` was inactive: 7.92%; that for `O=C(O)C(=O)c1ccc(N(CCCl)CCCl)cc1` was inactive: 2.21%. The value for `CCOC(=O)c1ccc(NC(=O)C(C)(CCl)SC)cc1` (stereo unspecified) was inactive: -9.8%; that for `O=C(OC1CN2CCC1CC2)c1cccc([N+](=O)[O-])c1` (stereo unspecified) was inactive: -14.4%.

As to `CSc1ccc(Nc2c([N+](=O)[O-])cc([N+](=O)[O-])cc2[N+](=O)[O-])cc1`, the inhibition (viability loss, TRAIL sensitization) was inactive: 33.7%.

`CCC(C)N(CC(C)C)C(=S)SC(NC(C)=O)C(Cl)(Cl)Cl` (stereo unspecified): the inhibition (viability loss, TRAIL sensitization) was inactive: 9.49%. The value for `O=C(OC1CN2CCC1CC2)C12CC3CC(CC(C3)C1)C2` (stereo unspecified) was inactive: 6.97%. On to `Cc1cc(=O)[nH]c(N[N+](=O)[O-])n1`, for which the inhibition (viability loss, TRAIL sensitization) was inactive: -2.28%. Take `Cc1c2c(nc3ccccc13)SC(C(Cl)Cl)C2` (stereo unspecified): the inhibition (viability loss, TRAIL sensitization) is inactive: 11.7%.

On to `COc1ccc2nc(NP(=O)(c3ccccc3)c3ccccc3)sc2c1`, for which the inhibition (viability loss, TRAIL sensitization) was inactive: -9.07%. Turning to `COc1cc(I)ccc1[As](=O)(O)O`, the inhibition (viability loss, TRAIL sensitization) was inactive: -20.9%. The figure for `O=P1(N(CCCl)CCCl)OCCCN1CCCl` (stereo unspecified) is inactive: -2.65%. As to `O=P1(N(CCCl)CCCl)Nc2ccccc2N1`, the inhibition (viability loss, TRAIL sensitization) was inactive: -8.93%. The value for `COc1ccc(N/C(=N/P(=O)(N2CCOCC2)N2CCOCC2)N2CCOCC2)cc1` was inactive: -2.1%. The figure for `O=[N+]([O-])c1cc(Oc2ccc([N+](=O)[O-])cc2C(F)(F)F)cc([N+](=O)[O-])c1` is inactive: -0.686%. The value for `C[As](=O)(O)c1cccc(C(=O)O)c1` was inactive: 3.9%.

With `O=[As](O)(c1ccc(O)cc1)c1ccccc1O`, the inhibition (viability loss, TRAIL sensitization) was inactive: -11.3%.

With `COc1cc(C(=O)NCC2(N3CCOCC3)CCCCC2)ccc1OCC(C)C`, the inhibition (viability loss, TRAIL sensitization) was inactive: 7.6%. Take `O=[N+]([O-])c1ccc(-c2cc([N+](=O)[O-])c(O)c([N+](=O)[O-])c2)cc1`: the inhibition (viability loss, TRAIL sensitization) is inactive: -5.33%. For `Cc1ccc2nc3c(c(C)c2c1)CC(C(Cl)Cl)S3` (stereo unspecified), the inhibition (viability loss, TRAIL sensitization) was inactive: -3.96%. As to `Cc1ccc(OP(=O)(Nc2ccc([N+](=O)[O-])cn2)Oc2ccc(C)cc2)cc1`, the inhibition (viability loss, TRAIL sensitization) was inactive: -4.99%. The figure for `[N-]=[N+]=NC1CCCCC1NC(=O)c1cc([N+](=O)[O-])cc([N+](=O)[O-])c1` (stereo unspecified) is inactive: -0.783%.
